Laboratory results from publication PMC4638363, “Linear Interaction Energy Based Prediction of Cytochrome P450 1A2 Binding Affinities with Reliability Estimation” (PLoS ONE, 2015).

Chains of the proteins cited; added tags and fusions are not shown.
UniProt P05177, whole entry: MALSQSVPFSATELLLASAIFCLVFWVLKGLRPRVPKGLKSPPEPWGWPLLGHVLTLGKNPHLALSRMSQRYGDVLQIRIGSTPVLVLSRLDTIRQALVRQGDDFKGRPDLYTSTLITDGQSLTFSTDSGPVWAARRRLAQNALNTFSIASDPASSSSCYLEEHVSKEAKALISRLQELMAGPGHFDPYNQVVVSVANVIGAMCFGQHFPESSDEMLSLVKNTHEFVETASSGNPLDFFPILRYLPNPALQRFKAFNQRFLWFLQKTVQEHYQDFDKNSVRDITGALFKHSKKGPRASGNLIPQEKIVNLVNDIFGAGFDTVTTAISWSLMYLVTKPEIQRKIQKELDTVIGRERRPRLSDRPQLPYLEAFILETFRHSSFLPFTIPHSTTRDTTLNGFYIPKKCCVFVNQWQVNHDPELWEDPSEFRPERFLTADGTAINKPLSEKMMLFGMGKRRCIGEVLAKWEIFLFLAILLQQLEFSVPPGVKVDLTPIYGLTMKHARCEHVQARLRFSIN

Tests used:
human CYP 1A2 [1] = target: T1, human CYP 1A2 (Homo sapiens, UniProt P05177); conditions: training set
human CYP 1A2 [2] = target: T1, human CYP 1A2; assay: in-house CYP 1A2 inhibition assay with 7-methoxyresorufin as substrate (resorufin fluorescence)

O=c1cc(-c2ccccc2)oc2c1ccc1ccccc12 [Compound 7, alpha-Naphthoflavone]
Residual (ΔGbind^Obs—ΔGbind^Calc) (human CYP 1A2 [1]): -0.311 kcal/mol
ΔΔG bind (human CYP 1A2 [2]; difference in ΔG bind between literature and in-house determined values): 0.574 kcal/mol
ΔG bind (inhouse) (human CYP 1A2 [2]; from in-house IC50 via Cheng-Prusoff and RTln(Ki)): -10.8 ± 0.884 kcal/mol
